Measurements reported in ChEMBL document CHEMBL1152801, “14 beta-O-cinnamoylnaltrexone and related dihydrocodeinones are mu opioid receptor partial agonists with predominant antagonist activity” (J Med Chem, 2009).

Amino acid sequences for entries named in this document (tags omitted).
UniProt P35372, whole entry: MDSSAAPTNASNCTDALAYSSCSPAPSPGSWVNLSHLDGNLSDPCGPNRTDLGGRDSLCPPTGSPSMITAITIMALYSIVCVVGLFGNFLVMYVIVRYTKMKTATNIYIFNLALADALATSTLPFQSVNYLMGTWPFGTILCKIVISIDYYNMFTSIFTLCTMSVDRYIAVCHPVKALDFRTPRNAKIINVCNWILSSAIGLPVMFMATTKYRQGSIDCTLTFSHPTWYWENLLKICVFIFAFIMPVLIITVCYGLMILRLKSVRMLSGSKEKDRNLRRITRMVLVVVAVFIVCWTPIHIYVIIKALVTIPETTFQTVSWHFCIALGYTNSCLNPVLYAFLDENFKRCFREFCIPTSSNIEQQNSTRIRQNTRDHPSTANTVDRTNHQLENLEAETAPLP

Biological target: Mu-type opioid receptor (Homo sapiens, UniProt P35372)
Assay type: functional, cell-based, CHO

COc1ccc2c3c1O[C@H]1C(=O)CC[C@@]4(NC(=O)/C=C/c5ccc(Cl)cc5)[C@@H](C2)N(CC2CC2)CC[C@]314
EC50: 17.8 nM
